In patent publication US20130310310A1 one finds EC50 (nM), GLP-1 receptor agonistic activity (CRE-luciferase reporter in HEK293 cells) data, which are given here for one substance.

This assay addresses GLP-1 receptor.

As to “[Cys^37(mPEG5000-MAL)] Exendin-4 (peptide)”, the EC50 (nM), GLP-1 receptor agonistic activity (CRE-luciferase reporter in HEK293 cells) amounted to 1.76 nM.
